Measurements from patent publication US20250276962A1, “CONTRACEPTIVE COMPOUNDS AND METHODS” (Regents of the University of Minnesota, priority 2021, published 2025).
pIC50: −log10 of the molar value.

Amino acid sequences for entries named in this document (tags omitted).
UniProt P10826, whole entry, species assumed: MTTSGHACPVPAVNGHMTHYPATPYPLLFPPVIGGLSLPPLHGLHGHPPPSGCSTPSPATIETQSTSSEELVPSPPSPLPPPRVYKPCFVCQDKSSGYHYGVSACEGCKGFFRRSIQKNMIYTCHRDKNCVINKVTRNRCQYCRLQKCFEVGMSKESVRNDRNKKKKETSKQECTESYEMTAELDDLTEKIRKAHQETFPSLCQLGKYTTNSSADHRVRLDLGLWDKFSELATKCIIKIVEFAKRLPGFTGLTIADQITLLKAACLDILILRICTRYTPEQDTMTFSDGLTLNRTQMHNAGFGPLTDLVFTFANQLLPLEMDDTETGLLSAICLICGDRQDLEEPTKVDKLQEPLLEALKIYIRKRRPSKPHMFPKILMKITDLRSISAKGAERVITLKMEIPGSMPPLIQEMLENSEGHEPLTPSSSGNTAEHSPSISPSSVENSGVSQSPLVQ
UniProt P13631, whole entry, species assumed: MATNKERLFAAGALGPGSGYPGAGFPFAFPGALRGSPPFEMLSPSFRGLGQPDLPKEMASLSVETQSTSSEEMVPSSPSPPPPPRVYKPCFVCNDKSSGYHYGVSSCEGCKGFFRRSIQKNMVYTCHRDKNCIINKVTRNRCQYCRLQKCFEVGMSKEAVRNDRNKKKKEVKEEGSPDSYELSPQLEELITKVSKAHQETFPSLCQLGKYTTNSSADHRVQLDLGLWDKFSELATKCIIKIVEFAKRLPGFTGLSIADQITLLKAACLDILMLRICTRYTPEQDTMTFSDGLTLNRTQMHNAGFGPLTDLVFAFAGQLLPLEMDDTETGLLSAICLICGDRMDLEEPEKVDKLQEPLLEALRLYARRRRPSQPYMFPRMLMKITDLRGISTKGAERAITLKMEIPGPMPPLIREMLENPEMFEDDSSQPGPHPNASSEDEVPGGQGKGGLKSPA
UniProt P10276, whole entry, species assumed: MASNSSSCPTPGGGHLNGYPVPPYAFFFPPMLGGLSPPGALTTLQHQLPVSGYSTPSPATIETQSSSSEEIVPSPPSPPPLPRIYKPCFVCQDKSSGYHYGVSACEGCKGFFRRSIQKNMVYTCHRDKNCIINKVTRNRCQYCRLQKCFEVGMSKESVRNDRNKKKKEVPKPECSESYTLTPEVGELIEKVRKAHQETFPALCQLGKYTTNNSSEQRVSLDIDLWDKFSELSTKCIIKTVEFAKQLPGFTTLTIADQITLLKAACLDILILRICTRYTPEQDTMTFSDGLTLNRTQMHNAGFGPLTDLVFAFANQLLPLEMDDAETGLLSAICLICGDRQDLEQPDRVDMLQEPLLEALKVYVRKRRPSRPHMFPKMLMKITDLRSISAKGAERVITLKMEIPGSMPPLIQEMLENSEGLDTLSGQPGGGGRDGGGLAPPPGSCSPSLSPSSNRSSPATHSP

Columns and labels:
RARβ = biological target: T1, RARβ (Homo sapiens, UniProt P10826); assay: Transactivation (luciferase) antagonist assay, RARβ; type: cell-based
T1 construct: host or cells: unnamed reporter cells

RARγ = biological target: T2, RARγ (Homo sapiens, UniProt P13631); assay: Transactivation (luciferase) antagonist assay, RARγ; type: cell-based
T2 construct: host or cells: unnamed reporter cells

RARα = RARα (Homo sapiens, UniProt P10276); assay: Transactivation (luciferase) antagonist assay, RARα

SMILES	pIC50 (RARβ)	pIC50 (RARγ)	pIC50 (RARα)
CC1(C)C=C(c2ccc(C(C)(C)C)cc2)c2cc(-c3ccc(-c4ccc(C(=O)O)cc4)[nH]3)ccc2O1	< 5.52	< 5.52	< 5.52
CC(C)c1ccc(C2=CC(C)(C)Oc3ccc(-c4ccc(-c5ccc(C(=O)O)cc5)[nH]4)cc32)cc1	< 5.52	< 5.52	< 5.48
Cc1ccc(C2=CC(C)(C)Oc3cc(O)c(-c4ccc(-c5ccc(C(=O)O)cc5)[nH]4)cc32)cc1	–	–	< 5.48
CC1(C)C=C(c2ccc(C(F)(F)F)cc2)c2cc(-c3ccc(-c4ccc(C(=O)O)cc4)[nH]3)ccc2O1	< 5.52	< 5.52	5.88
Cc1ccc(C2=CC(C)(C)Oc3c(C)cc(-c4ccc(-c5ccc(C(=O)O)cc5)[nH]4)cc32)cc1	–	–	6.11
Cc1ccc(C2=CC(C)(C)Oc3c(Cl)cc(-c4ccc(-c5ccc(C(=O)O)cc5)[nH]4)cc32)cc1	–	–	6.03
CC1(C)C=C(c2ccc([N+](=O)[O-])cc2)c2cc(-c3ccc(-c4ccc(C(=O)O)cc4)[nH]3)ccc2O1	< 5.52	< 5.52	6.09
CCC1(CC)C=C(c2ccc(C)cc2)c2cc(-c3ccc(-c4ccc(C(=O)O)cc4)[nH]3)ccc2O1	–	–	< 5.48

Now those with a higher pIC50 (RARα), led by results:

pIC50 (RARβ)	pIC50 (RARγ)	pIC50 (RARα)	SMILES
–	–	6.13	Cc1ccc(C2=CC(C)(C)Oc3c(Br)cc(-c4ccc(-c5ccc(C(=O)O)cc5)[nH]4)cc32)cc1
< 5.52	< 5.52	6.33	CCc1ccc(C2=CC(C)(C)Oc3ccc(-c4ccc(-c5ccc(C(=O)O)cc5)[nH]4)cc32)cc1
< 5.52	< 5.52	6.43	COc1ccc(C2=CC(C)(C)Oc3ccc(-c4ccc(-c5ccc(C(=O)O)cc5)[nH]4)cc32)cc1
< 5.52	< 5.52	7.36	CC1(C)C=C(c2ccc(F)cc2)c2cc(-c3ccc(-c4ccc(C(=O)O)cc4)[nH]3)ccc2O1
